According to patent US9029542B2 (priority 2011, dated 2015):

Columns and labels:
[1] = tested on: cockspur grass; experiment: Weed clearing activity test with culture dish method (ex-vivo plate method); assay type: in vivo; details: positive = inhibition; for weed clearing activity, cockspur grass Root (Effect): root length after 5 days; for weed clearing activity, cockspur grass Stem (Effect): stem length after 5 days
[2] = tested on: rape; experiment: as above; assay type: in vivo; details: positive = inhibition; for weed clearing activity, rape Root (Effect): root length after 5 days; for weed clearing activity, rape Stem (Effect): stem length after 5 days
[3] = tested on: Amaranthus retroflexus; experiment: Postemergence weed clearing activity, pot-culture method; assay type: in vivo; details: 10 g/mu; foliage spray; visual 0-100% grading 25 days after application
[4] = tested on: Capsella bursa-pastoris; experiment: as above; assay type: in vivo; details: 10 g/mu; foliage spray; visual 0-100% grading 25 days after application
[5] = tested on: Chenopodium serotinum; experiment: as above; details: 10 g/mu; foliage spray; visual 0-100% grading 25 days after application

Structure (SMILES) | weed clearing activity, cockspur grass Root (Effect) ([1]; 10 μg/g) | weed clearing activity, cockspur grass Stem (Effect) ([1]; 10 μg/g) | weed clearing activity, cockspur grass Root (Effect) ([1]; 100 μg/g) | weed clearing activity, cockspur grass Stem (Effect) ([1]; 100 μg/g) | weed clearing activity, rape Root (Effect) ([2]; 10 μg/g) | weed clearing activity, rape Stem (Effect) ([2]; 10 μg/g, negative = promotion) | weed clearing activity, rape Root (Effect) ([2]; 100 μg/g) | weed clearing activity, rape Stem (Effect) ([2]; 100 μg/g) | weed clearing activity, Amaranthus retroflexus Postemergence [3] | weed clearing activity, Capsella bursa-pastoris Postemergence [4] | Postemergence weed clearing activity, Chenopodium serotinum [5]
Cc1cccc(OCC(=O)OCC23COP(=O)(OC2)OC3)c1 | 83% | 0% | 94% | 39% | 91% | 37% | 99% | 77% |  |  | 
CC(Oc1ccc(F)cc1Cl)C(=O)OCC12COP(=S)(OC1)OC2 (centres unmarked) | 79% | 40% | 97% | 47% | 96% | 62% | 98% | 93% |  |  | 
O=C(COc1ccc(Cl)cc1)OCC12COP(=O)(OC1)OC2 | 83% | 37% | 97% | 42% | 92% | 63% | 97% | 90% | 0% | 0% | 70%
CC(Oc1cccc(Cl)c1Cl)C(=O)OCC12COP(=S)(OC1)OC2 (centres unmarked) | 88% | 45% | 97% | 59% | 96% | 80% | 98% | 93% |  |  | 
Cc1cc(OCC(=O)OCC23COP(=O)(OC2)OC3)ccc1Cl | 91% | 55% | 97% | 63% | 97% | 90% | 100% | 97% | 0% | 0% | 70%
O=C(COc1ccc(F)cc1Cl)OCC12COP(=O)(OC1)OC2 | 95% | 43% | 95% | 54% | 100% | 93% | 100% | 99% | 40% | 60% | 70%
CC(Oc1ccc(Cl)cc1Cl)C(=O)OCC12COP(=O)(OC1)OC2 (centres unmarked) | 85% | 30% | 91% | 43% | 94% | 71% | 97% | 93% |  |  | 
CC(Oc1ccc(Cl)cc1)C(=O)OCC12COP(=S)(OC1)OC2 (centres unmarked) | 93% | 36% | 97% | 43% | 97% | 91% | 99% | 96% |  |  | 
CC(Oc1ccc(Cl)cc1F)C(=O)OCC12COP(=O)(OC1)OC2 (centres unmarked) | 86% | 40% | 92% | 49% | 98% | 74% | 98% | 94% |  |  | 
CC(Oc1ccc(Cl)cc1)C(=O)OCC12COP(=O)(OC1)OC2 (centres unmarked) | 86% | 39% | 93% | 44% | 97% | 73% | 97% | 92% |  |  | 
CC(Oc1ccc(F)cc1)C(=O)OCC12COP(=S)(OC1)OC2 (centres unmarked) | 87% | 35% | 97% | 64% | 94% | 67% | 99% | 93% |  |  | 
O=C(COc1cccc(C(F)(F)F)c1)OCC12COP(=O)(OC1)OC2 | 91% | 50% | 97% | 78% | 92% | 87% | 99% | 97% |  |  | 
Cc1ccc(Cl)c(OCC(=O)OCC23COP(=O)(OC2)OC3)c1 | 54% | 3% | 93% | 37% | 93% | 75% | 99% | 88% |  |  | 
Cc1cccc(OCC(=O)OCC23COP(=O)(OC2)OC3)c1C | 44% | 18% | 89% | 50% | 86% | 64% | 99% | 97% |  |  | 
CC(Oc1cccc(Cl)c1Cl)C(=O)OCC12COP(=O)(OC1)OC2 (centres unmarked) | 24% | 34% | 43% | 46% | 93% | 66% | 98% | 90% |  |  | 
CC(Oc1ccc(F)cc1Cl)C(=O)OCC12COP(=O)(OC1)OC2 (centres unmarked) | 94% | 28% | 97% | 59% | 98% | 90% | 99% | 94% |  |  | 
O=C(COc1ccc(Cl)cc1Cl)OCC12COP(=O)(OC1)OC2 | 94% | 52% | 97% | 52% | 95% | 92% | 99% | 99% |  |  | 
O=C(COc1ccc(F)cc1)OCC12COP(=O)(OC1)OC2 | 89% | 18% | 94% | 78% | 86% | 64% | 99% | 97% |  |  | 
CC(Oc1ccc(Cl)cc1F)C(=O)OCC12COP(=S)(OC1)OC2 (centres unmarked) | 77% | 42% | 93% | 46% | 96% | 84% | 98% | 90% |  |  | 
O=C(COc1ccccc1)OCC12COP(=O)(OC1)OC2 | 89% | 0% | 94% | 82% | 82% | 23% | 99% | 83% |  |  | 
CC(Oc1ccc(Cl)cc1Cl)C(=O)OCC12COP(=S)(OC1)OC2 (centres unmarked) | 91% | 37% | 97% | 54% | 97% | 89% | 99% | 93% |  |  | 
CC(Oc1ccc(F)cc1)C(=O)OCC12COP(=O)(OC1)OC2 (centres unmarked) | 88% | 25% | 96% | 50% | 96% | 79% | 99% | 93% |  |  | 
